For three compounds, IC50 results are on record in ChEMBL document CHEMBL1140657, “SAR of a novel 'Anthranilamide Like' series of VEGFR-2, multi protein kinase inhibitors for the treatment of cancer” (Bioorg Med Chem Lett, 2007).

Protein sequences, listed by entry. Tags and fused reporters are not part of them.
UniProt P15056, whole entry: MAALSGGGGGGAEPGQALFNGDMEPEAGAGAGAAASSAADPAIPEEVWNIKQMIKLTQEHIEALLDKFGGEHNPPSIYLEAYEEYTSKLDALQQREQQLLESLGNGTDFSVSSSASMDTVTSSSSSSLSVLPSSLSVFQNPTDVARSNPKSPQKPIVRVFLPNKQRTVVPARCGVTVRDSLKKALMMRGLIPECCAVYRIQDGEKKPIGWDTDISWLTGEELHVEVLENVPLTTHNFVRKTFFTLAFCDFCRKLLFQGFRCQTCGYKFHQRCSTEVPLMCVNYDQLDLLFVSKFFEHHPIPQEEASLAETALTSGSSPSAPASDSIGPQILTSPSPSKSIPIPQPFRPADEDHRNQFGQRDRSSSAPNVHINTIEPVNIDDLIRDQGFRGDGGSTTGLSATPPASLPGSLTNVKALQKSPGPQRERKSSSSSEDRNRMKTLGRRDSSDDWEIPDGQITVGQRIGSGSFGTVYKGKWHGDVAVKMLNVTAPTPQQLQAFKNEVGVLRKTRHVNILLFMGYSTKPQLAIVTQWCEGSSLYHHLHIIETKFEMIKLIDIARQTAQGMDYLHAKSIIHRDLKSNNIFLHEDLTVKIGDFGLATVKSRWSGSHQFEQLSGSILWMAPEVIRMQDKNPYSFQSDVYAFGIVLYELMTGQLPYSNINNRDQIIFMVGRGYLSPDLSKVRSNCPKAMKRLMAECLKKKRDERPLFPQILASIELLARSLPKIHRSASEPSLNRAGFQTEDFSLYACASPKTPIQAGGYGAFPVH

The structures appear in SMILES notation.

This test concerns the target Serine/threonine-protein kinase B-raf (Homo sapiens, UniProt P15056). The test can be described thus: Inhibition of b-Raf.
Turning to `CNC(=O)Nc1ccc(CNc2ncsc2C(=O)Nc2ccc3c(c2)OC(F)(F)O3)cn1`, 69 nM corresponded to half-maximal inhibition (IC50).
For `CNC(=O)Nc1ccc(CNc2c(C(=O)Nc3ccc4c(c3)OC(F)(F)C(F)(F)O4)cnn2C)cn1` the value was 191 nM; for `CCNC(=O)Nc1ccc(CNc2ncsc2C(=O)Nc2ccc3c(c2)OC(F)(F)O3)cn1`, 122 nM.
